What was measured:
Format in all cases: cell-based, rat
[1] = system: coronary (left anterior descending artery, LAD) artery segments; test: Vasodilation of isolated precontracted artery segments (wire myograph), coronary artery; settings: coronary versus mesenteric and basilar artery
Protocol: Basilar, mesenteric and coronary arteries were isolated immediately and ring artery segments were stored in ice cold PSS buffer before being mounted on 40 μm stainless steel wires in a Multi Wire Myograph System organ bath (model 610M, Danish Myo Technology A/S, Denmark). Each segment was immersed in 37° C. PSS solution, continuously aerated with 5% CO2/95% O2 to maintain pH 7.4. […] One wire was connected to a micrometer screw enabling adjustments of the distance between the wires. […]
Measurements of vascular tone were recorded using the data acquisition hardware Power Lab unit (ADInstruments). […]
Vasodilation is expressed as percentage of the remaining precontraction tone induced by PGF2α. […] Active tension was determined by subtracting the passive tension (resting tension in PSS) from the total tension (during KPSS or PGF2α challenge).
All pharmacological data were analysed using Prism 7.02 (GraphPad Software Inc., San Diego, CA) and given as mean±S.E.M. For all analyses, the data were unweighted and each y value (mean of replicates for each individual experiment) was considered an individual point. […]
Differences in pEC50 and Emax values were analysed with paired (animal) t-tests and considered significant as P<0.05. […]

[2] = system: coronary LAD artery segments; test: CGRP-agonist sensibilization: repeated dose-response and artery culture, coronary LAD; settings: second dose-response curve 90-120 minutes after the first
Protocol: (§1) All experiments were conducted as described in Example 2 with the following modifications: • Effect of repeated dose-response: A second cumulative dose-response curves were conducted 90-120 minutes after completion of the first COMPOUND I or CGRP dose-response curve. • Effect of artery culture: After dissection, artery segments were cultured (DMEM supplemented with penicillin and streptomycin) for 24 h at 37° C.±Compound I (10 nM) for 24 h. Artery segments were divided for comparison of the effect of Compound I and CGRP in fresh and cultured artery segments, respectively.

[3] = system: mesenteric artery segments; test: CGRP-agonist sensibilization: repeated dose-response and artery culture, mesenteric artery; settings: isolated mesenteric artery
Protocol: as §1

CGRP: human αCGRP (Bachem H-1470), native calcitonin gene-related peptide, vasoactive substance [reference compound]
CGRP potency lower in coronary artery than mesenteric and basilar [1]: 10 fold | Effect of repeated cumulative stimulation on potency (in words) [2]: shift in potency towards significant sensitization | CGRP-agonist-induced CGRP sensibilization (in words) [3]: no CGRP-agonist-induced CGRP sensibilization

Source: patent publication US11890324B2, “Compounds for use in inducing myocardial perfusion recovery” (Epoqe Pharma ApS, priority 2018, dated 2024)
